From US9242009B2, “Compositions and methods to treat neurodegenerative diseases” (The General Hospital Corporation, priority 2012, dated 2016)

How the values were obtained:
[1] = tested on: murine primary cortical neurons
[2] = mouse, in vivo, ip
mice challenged with LPS = conditions: mouse, in vivo, ip

Which “LDH release (cytotoxicity)” value [1] does the source give for Sodium sulfide [Na2S] here?
Its value is “markedly increased LDH release”.

And the Plasma sulfide levels [2]?
The Plasma sulfide levels was “but not”.

What about the “Swimming speed in Morris water-maze test” value (mice challenged with LPS) of the same substance?
The value was “did not change it”.
